Test results taken from PubChem BioAssay AID540364 (The Scripps Research Institute Molecular Screening Center, 2011).
This is a selection; strong and weak results do not stand in their true shares. Some results for these compounds are left out of this collection, so the calls shown say nothing about other tests. Activity calls are given as the source filed them.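 How the source made its calls: active means activation above the average of all compounds screened plus 3 SD, cutoff fixed separately per campaign (cut at about 7.5% in these data); inactive means the rest.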

Experiment: GAA850 frataxin promoter reporter upregulation – cell-based, luciferase luminescence, HEK293 lucGAA850, primary screen (AID 540364);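 further: 0% = DMSO wells and 100% = 10 µM SAHA wells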
Settings: HEK293 lucGAA850 FXN promoter luciferase reporter, 24 h; at 6 µM; hits give high values; percent of 10 µM SAHA response

SMILES | activation
O=C(OC1CN2CCC1CC2)C(CO)(c1ccccc1)c1ccccc1 (stereo unspecified) | inactive: 1.45%
C=C(C)C#CC(O)(C(=O)OC1CCN(C)CC1)c1ccccc1 (stereo unspecified) | inactive: 1.14%
COc1ccc(Br)c(C(=O)NCC2(N3CCCCC3)CCCCC2)c1 | inactive: -1.02%
O=C(OCCN1CCCC1)C(O)(c1ccccc1)c1ccccc1 | inactive: 2.58%
CC(C)Oc1ccc(C(=O)NCC2(N(C)C)CCCCC2)cc1 | inactive: 1.42%
CN(C)c1cccc(C(=O)NCC2(N(C)C)CCCCC2)c1 | inactive: -0.3%
CN(C)C1(CNC(=O)c2ccc(Br)cc2)CCCCC1 | inactive: -0.03%
COc1cc(C(=O)NCC2(N(C)C)CCCCC2)c([N+](=O)[O-])cc1OC | inactive: 2.5%
COc1ccc(Cl)cc1C(=O)NCC1(N(C)C)CCCCC1 | inactive: -0.46%
COc1cccc(C(=O)NCC2(N3CCCCC3)CCCCC2)c1 | inactive: 2.52%
O=C(NCC1(N2CCCCC2)CCCCC1)c1cccc(Cl)c1 | inactive: 2.08%
CN(C)c1ccc(C(=O)NCC2(N(C)C)CCCCC2)cc1 | inactive: 1.52%
CN(C)C1CCCC1OC(=O)C(O)(c1ccccc1)c1ccccc1 (stereo unspecified) | inactive: -0.55%
Cc1ccccc1C(=O)NCC1(N2CCCCC2)CCCCC1 | inactive: 0.59%
O=C(NCC1(N2CCCCC2)CCCCC1)c1cc(F)c(F)cc1Cl | inactive: 2.65%
C=CCN1CCN(CCOC(=O)C(O)(c2ccccc2)c2ccccc2)CC1 | inactive: 0.38%
COc1ccc(C(=O)NCC2(N(C)C)CCCCC2)cc1 | inactive: 1.61%
O=C(NCC1(N2CCCCC2)CCCCC1)c1cccc(Br)c1 | inactive: 3.1%
CCN1CCCC(OC(=O)C2(O)c3ccccc3C=Cc3ccccc32)C1 (stereo unspecified) | inactive: -0.7%
Cc1cc(C(=O)NCC2(N3CCCCC3)CCCCC2)ccc1[N+](=O)[O-] | inactive: 2.78%
O=C(NCC1(N2CCCCC2)CCCCC1)c1cc([N+](=O)[O-])ccc1Cl | inactive: -0.78%
CN1[C@@H]2CC[C@H]1CC(OC(=O)C(O)(c1ccccc1)c1ccccc1)C2 (stereo partly specified) | inactive: -0.71%
COc1cc(SC)ccc1C(=O)NCC1(N(C)C)CCCCC1 | inactive: 1.65%
CCN(CC)CC(C)C(C)OC(=O)C(O)(c1ccccc1)c1ccccc1 (stereo unspecified) | inactive: -1.67%
CC(C)N1C(=O)CC2(CCN(CCOC(=O)C(O)(c3ccccc3)c3ccccc3)CC2)C1=O | inactive: 0.03%
Cc1ccc(C(=O)NCC2(N3CCCCC3)CCCCC2)cc1 | inactive: 1.68%
